Laboratory results: patent US8138374B2, “Composition for external application to skin” (Shiseido Company, Ltd., priority 2007, dated 2012)

Experiment: Solubility evaluation (appearance and solubility)
Type: physicochemical
Method: Appearance and solubility were evaluated for N,N-dimethyl-2-(methylamino)acetoamide, N,N-dimethyl-2-(methylamino) acetoamide hydrochloride and sarcosine. Furthermore, dissolution was evaluated based on appearance after preparing a solution at room temperature. The solubilities shown in the table indicate the concentration at which dissolution was confirmed, and those results shown with a “>” symbol in the table indicate the concentration at which the substance was confirmed to dissolve, and actual solubility is greater than or equal to this concentration.

Appearance (Room Temperature): White crystal
SMILES: CNCC(=O)O [Sarcosine, reference compound]
